According to PMC11547827, “Discovery of Cyclic Peptide Inhibitors Targeted on TNFα-TNFR1 from Computational Design and Bioactivity Verification” (Molecules, 2024):

Tested on: L929 cells
Details: 24 h, CCK-8
Protocol: L929 cells were seeded in a 96-well plate at a density of 8000 cells per well and cultured for 24 h under standard conditions. Then, the liquid in the wells was discarded, and 100 µL of medium containing different concentrations of cyclic peptides was added. After incubation for 24 h, the liquid in the well was discarded, and the medium was replaced with CCK-8 working solution (100 μL RPMI 1640 medium containing 5% CCK-8) and incubated in the dark for 2 h. The absorbance of each well at 450 nm was detected with a microplate reader. The same operation was performed with wells not seeded with cells as a blank group to eliminate systematic errors. Cell viability was calculated according to the following formula:(7) Cell viability(%)=(ODtest−ODblank)/(ODcontrol−ODblank)×100%

CC(C)C[C@@H]1NC(=O)[C@H](Cc2c[nH]cn2)NC(=O)[C@H](CC(N)=O)NC(=O)[C@H](CCC(=O)O)NC(=O)[C@H](CO)NC(=O)[C@H](C)NC(=O)[C@H]([C@@H](C)O)NC(=O)[C@H](Cc2ccccc2)NC(=O)[C@H](CO)NC(=O)CNC(=O)[C@H](CO)NC(=O)[C@H](CCC(=O)O)NC(=O)[C@@H](N)CSSC[C@@H](C(=O)O)NC(=O)[C@H](Cc2c[nH]cn2)NC(=O)[C@H](CCCNC(=N)N)NC1=O [R1_CC4]
cytotoxicity to L929 cells (in words): no significant cytotoxicity
